Among the data in paper PMC9841521, “Subnanomolar Affinity and Selective Antagonism at α7 Nicotinic Receptor by Combined Modifications of 2-Triethylammonium Ethyl Ether of 4-Stilbenol (MG624)” (Journal of Medicinal Chemistry, 2022) are Ki values, retold here.

By UniProt entry, the sequences of proteins in these tests, tags left out. Residues count along the entry.
UniProt P36544, 23-502 limits assumed: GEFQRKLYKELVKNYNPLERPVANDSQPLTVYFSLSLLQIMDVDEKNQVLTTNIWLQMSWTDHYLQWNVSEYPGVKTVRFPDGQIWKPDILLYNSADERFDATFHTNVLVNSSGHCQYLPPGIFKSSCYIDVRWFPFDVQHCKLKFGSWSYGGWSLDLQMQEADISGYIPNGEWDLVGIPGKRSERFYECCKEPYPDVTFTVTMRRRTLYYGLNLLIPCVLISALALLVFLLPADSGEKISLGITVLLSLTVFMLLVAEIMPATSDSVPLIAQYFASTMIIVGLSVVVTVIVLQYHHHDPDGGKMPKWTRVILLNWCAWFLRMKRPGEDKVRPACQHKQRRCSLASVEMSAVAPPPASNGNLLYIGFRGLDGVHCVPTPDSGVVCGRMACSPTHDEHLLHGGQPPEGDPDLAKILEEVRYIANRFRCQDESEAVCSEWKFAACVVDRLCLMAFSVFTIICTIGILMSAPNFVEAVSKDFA

For orientation: Ki means a dissociation constant, usually derived from enzyme kinetics or from competition with a known ligand.

For this experiment, the target named is human α7-nAChR (Homo sapiens, UniProt P36544). The settings on record: read-out: α7-nAChR [125I]-αBgtx Ki; human α7 expressed in SH-SY5Y cells; confidence interval in parentheses.

The structures appear in SMILES notation.

Take `C=Cc1ccc(OCC[N+](CC)(CC)CC)cc1` [Compound 4, N,N,N-Triethyl-2-(4-vinylphenoxy)ethan-1-aminium Iodide]: the inhibitory constant (Ki) stood at 0.285 µM.

With `CC[N+](CC)(CC)CCOc1ccc(-c2ccccc2)cc1` [Compound 5, 2-([1,1′-Biphenyl]-4-yloxy)-N,N,N-triethylethan-1-aminium Iodide], the Ki was determined as 0.129 µM. Under `CC[N+](CC)(CC)CCOc1ccc(C(=O)Nc2ccccc2)cc1` [Compound 26, N,N,N-Triethyl-2-(4-(phenylcarbamoyl)phenoxy)ethan-1-aminium Iodide] stands 0.25 µM; under `CC[N+](CC)(CC)CCOc1ccc(/C=C/c2ccc(OC)cc2)cc1` [Compound 18, (E)-N,N,N-Triethyl-2-(4-(4-methoxystyryl)phenoxy)ethan-1-aminium Iodide], 0.353 µM. Under `CC[N+](CC)(CC)CCOc1ccc(OCc2ccccc2)cc1` [Compound 23, 2-(4-(Benzyloxy)phenoxy)-N,N,N-triethylethan-1-aminium Iodide] stands 1.01 µM; under `CC[N+](CC)(CC)CCOc1ccc(/C=C/c2cc(O)cc(O)c2)cc1` [Compound 22, (E)-2-(4-(3,5-Dihydroxystyryl)phenoxy)-N,N,N-triethylethan-1-aminium Iodide], 0.242 µM; under `CC[N+](CC)(CC)CCOc1ccc(/C=C/c2ccccc2Br)cc1`, 0.525 µM. To `CC[N+](CC)(CC)CCOc1ccc(COc2ccccc2)cc1` belongs 2.6 µM. Regarding `CC[N+](CC)(CC)CCOc1ccc(-c2ccc3cc[nH]c3c2)cc1.[I-]` [Compound 30, 2-(4-(1H-Indol-6-yl)phenoxy)-N,N,N-triethylethan-1-aminium Iodide], the inhibition constant Ki worked out at 0.184 µM. Under `CC[N+](CC)(CC)CCOc1ccc(/C=C/c2ccc3ccccc3c2)cc1` [Compound 11, (E)-N,N,N-Triethyl-2-(4-(2-(naphthalen-2-yl)vinyl)phenoxy)ethan-1-aminium Iodide] stands 1 µM; under `CC[N+](CC)(CC)CCOc1ccc(/C=C/c2ccc(O)cc2)cc1` [Compound 20, (E)-N,N,N-Triethyl-2-(4-(4-hydroxystyryl)phenoxy)ethan-1-aminium Iodide], 0.342 µM. Under `CC[N+](CC)(CC)CCOc1ccc(NC(=O)c2ccccc2)cc1` [Compound 25, 2-(4-Benzamidophenoxy)-N,N,N-triethylethan-1-aminium Iodide] stands 0.862 µM; under `CC[N+](CC)(CC)CCOc1ccc(C#Cc2ccccc2)cc1` [Compound 7, N,N,N-Triethyl-2-(4-(phenylethynyl)phenoxy)ethan-1-aminium Iodide], 0.664 µM. To `CC[N+](CC)(CC)CCOc1ccc(/C=C/c2cccc(O)c2)cc1` [Compound 19, (E)-N,N,N-Triethyl-2-(4-(3-hydroxystyryl)phenoxy)ethan-1-aminium Iodide] belongs 0.573 µM. For `CC[N+](CC)(CC)CCOc1ccc(/C=C/c2cccc(OC)c2)cc1`, the inhibition constant (Ki) was 0.621 µM.

For `CC[N+](CC)(CC)CCOc1ccc(/C=C/c2cccc(C(F)(F)F)c2)cc1` [Compound 15, (E)-N,N,N-Triethyl-2-(4-(3-(trifluoromethyl)styryl)phenoxy)ethan-1-aminium Iodide], the Ki stood at 1.53 µM. To `CC[N+](CC)(CC)CCOc1ccc(/C=C/c2ccc(C(F)(F)F)cc2)cc1` [Compound 16, (E)-N,N,N-Triethyl-2-(4-(4-(trifluoromethyl)styryl)phenoxy)ethan-1-aminium Iodide] belongs 1.33 µM.

In the case of `CC[N+](CC)(CC)CCOc1ccc(/N=N/c2ccccc2)cc1.[I-]` [Compound 27, (E)-N,N,N-Triethyl-2-(4-(phenyldiazenyl)phenoxy)ethan-1-aminium Iodide], the Ki came out at 0.526 µM. To `CC[N+](CC)(CC)CCOc1ccc(CCc2ccccc2)cc1.[I-]` [Compound 6, N,N,N-Triethyl-2-(4-phenethylphenoxy)ethan-1-aminium Iodide] belongs 1.65 µM.

`CC[N+](CC)(CC)CCOc1ccc(/C=C/c2cccc(Br)c2)cc1`: the Ki was found to be 1.04 µM. Under `CC[N+](CC)(CC)CCOc1ccc(/C=C/c2cccc3ccccc23)cc1` [Compound 10, (E)-N,N,N-Triethyl-2-(4-(2-(naphthalen-1-yl)vinyl)phenoxy)ethan-1-aminium Iodide] stands 1.35 µM; under `CC[N+](CC)(CC)CCOc1ccc(/C=C/c2ccc(Br)cc2)cc1`, 0.723 µM.

With `CC[N+](CC)(CC)CCOc1ccc(-c2cccc3ccccc23)cc1.[I-]` [Compound 9, N,N,N-Triethyl-2-(4-(naphthalen-1-yl)phenoxy)ethan-1-aminium Iodide], the inhibition constant (Ki) was determined as 3.11 µM. Under `CC[N+](CC)(CC)CCOc1ccc(-c2ccc3occc3c2)cc1` [Compound 32, 2-(4-(Benzofuran-5-yl)phenoxy)-N,N,N-triethylethan-1-aminium Iodide] stands 0.45 µM. Under `CC[N+](CC)(CC)CCOc1ccccc1` [Compound 3, N,N,N-Triethyl-2-phenoxyethan-1-aminium Iodide] stands 27 µM.
